This series can be described thus: Efflux ratio of permeability across basolateral to apical side over apical to basolateral side in human Caco-2 cells incubated for 2 hrs by LC-MS/MS analysis. The note with it: caco-2, 2 h. Background: Passage across Caco-2 layers is used to estimate intestinal permeability.

A value given as a limit tells only on which side of the number the result lay.

In the case of `Brc1cc(Br)cc([C@H]2C[C@@H](CN3CCCC3)N2Cc2ccccc2Br)c1`, the Ratio was less than 1.

The values above are taken from ChEMBL document CHEMBL5385915 (J Med Chem, 2024).
